Measured values as given in PMC4661386, “Metal Ion-dependent Heavy Chain Transfer Activity of TSG-6 Mediates Assembly of the Cumulus-Oocyte Matrix*” (The Journal of Biological Chemistry, 2015).

Experiments:
[1] = target: T1, Recombinant human heavy chain 1 (rHC1) D298A mutant (human, UniProt P19827 35-672, D298A); experiment: SPR; rHC1 (WT or D298A) immobilised on a C1 chip; Link_TSG6 flowed over at a range of concentrations in HBS-T; multicycle kinetics, 1:1 Langmuir model; details: both partners purified
T1 construct: source: mutation by QuikChange
T1 sequence (looked up): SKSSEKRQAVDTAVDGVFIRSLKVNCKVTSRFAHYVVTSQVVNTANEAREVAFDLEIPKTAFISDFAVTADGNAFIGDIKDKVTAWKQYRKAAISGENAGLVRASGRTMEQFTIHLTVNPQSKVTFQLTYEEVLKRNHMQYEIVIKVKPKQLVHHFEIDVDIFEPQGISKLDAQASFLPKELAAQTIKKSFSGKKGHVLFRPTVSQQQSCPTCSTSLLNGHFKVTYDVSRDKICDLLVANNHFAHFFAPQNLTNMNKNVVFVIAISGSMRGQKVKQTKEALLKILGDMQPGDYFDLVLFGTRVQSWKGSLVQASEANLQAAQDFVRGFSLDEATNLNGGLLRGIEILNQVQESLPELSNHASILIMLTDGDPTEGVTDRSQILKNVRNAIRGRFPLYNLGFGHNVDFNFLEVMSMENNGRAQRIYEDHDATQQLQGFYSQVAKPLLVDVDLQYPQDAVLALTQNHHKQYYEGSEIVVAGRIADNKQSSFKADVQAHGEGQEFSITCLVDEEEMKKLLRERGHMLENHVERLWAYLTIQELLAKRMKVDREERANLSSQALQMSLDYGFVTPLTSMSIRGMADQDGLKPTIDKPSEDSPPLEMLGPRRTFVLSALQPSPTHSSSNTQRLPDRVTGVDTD

[2] = target: T2, Recombinant human heavy chain 1 (rHC1) of inter-alpha-inhibitor, wild type (human, UniProt P19827 35-672); experiment: as above; details: both partners purified
T2 construct: also called WT rHC1
T2 sequence (looked up): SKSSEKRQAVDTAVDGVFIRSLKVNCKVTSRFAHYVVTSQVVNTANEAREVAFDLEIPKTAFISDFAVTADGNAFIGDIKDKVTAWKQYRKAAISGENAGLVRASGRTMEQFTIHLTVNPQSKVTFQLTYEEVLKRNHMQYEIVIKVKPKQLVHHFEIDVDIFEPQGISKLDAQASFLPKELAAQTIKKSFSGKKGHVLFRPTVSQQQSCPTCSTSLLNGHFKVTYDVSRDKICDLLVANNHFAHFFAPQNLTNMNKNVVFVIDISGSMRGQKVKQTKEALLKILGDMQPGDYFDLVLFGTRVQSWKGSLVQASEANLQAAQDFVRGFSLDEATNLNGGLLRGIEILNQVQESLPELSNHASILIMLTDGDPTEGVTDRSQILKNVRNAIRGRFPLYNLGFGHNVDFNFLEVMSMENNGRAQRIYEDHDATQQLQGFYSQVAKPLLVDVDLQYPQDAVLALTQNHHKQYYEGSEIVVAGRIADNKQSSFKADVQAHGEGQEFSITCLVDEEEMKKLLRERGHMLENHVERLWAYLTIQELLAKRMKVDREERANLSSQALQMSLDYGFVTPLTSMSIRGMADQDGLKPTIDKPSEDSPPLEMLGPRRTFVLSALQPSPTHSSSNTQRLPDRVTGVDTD

binding result [1]: binds
Kd [2]: ~2 nM
B1: Link_TSG6 (recombinant Link module from human TSG-6) (domain or fragment, UniProt P98066 36-133, looked up)
chain: GVYHREARSGKYKLTYAEAKAVCEFEGGHLATYKQLEAARKIGFHVCAAGWMAKGRVGYPIVKPGPNCGFGKTGIIDYGIRLNRSERWDAYCYNPHAK
notes: TSG-6, human, Link module, residues 36-133 of the preprotein; also called Link domain
